# Measurements published in US6881824B1, “Peptides suitable for use in antigen specific immunosuppressive therapy” (Akzo Nobel N.V., priority 1996, dated 2005).
# Target: T1, DR4 (DRB1*0401) molecules (Homo sapiens, UniProt P01903+P01911, A100K/A169T/F76Y/I96L/K127E/L162R/M171V/N62H/P40V/Q125Y/R42H/S133A/S149N/S66Y/V115G/V209L/W38E)
# T1 construct: molecules were purified from the homozygous EBV-transformed human B lymphoblastoid cell lines Huly138IC2 and BM92 using the mAb; endogenous in cells
# Test: Peptide HLA-DR binding assay (semi-quantitative competition binding)
# Procedure: DR4 (DRB1*0401) and DR4 (DRB1*0404) molecules were purified from the homozygous EBV-transformed human B lymphoblastoid cell lines Huly138IC2 and BM92 using the mAb t243, directed against a monomorphic determinant on the DR-complex (Lampson, L. A and R. Levy (1980), J. Immunol. 125:293 299).
# The peptide binding studies were performed using a semi-quantitative competition binding assay (Joosten et al 1994, Int. Immunol. 6, 751). […]
# After 0.5-1 hr, the filters were washed in PBS, 0.05% Tween 20 (Sigma) and incubated with Strepcavidin-HRPO (Southern Biotechnology) in a 1:10.000 dilution. Biotinylated peptides were detected by enhanced chemiluminescence using a Western Blot ECL kit (Amersham). […] The spots were analysed by scanning the films and using Image Quant/Excel software for analysis. […]
compound,measurement,value
"CC[C@H](C)[C@H](NC(=O)[C@@H](NC(=O)[C@H](Cc1c[nH]cn1)NC(=O)[C@@H](NC(=O)[C@H](CS)NC(=O)[C@H](CC(C)C)NC(=O)[C@H](Cc1ccccc1)NC(=O)[C@H](CCCNC(=N)N)NC(=O)[C@H](CC(=O)O)NC(=O)[C@H](CC(C)C)NC(=O)[C@H](C)NC(=O)[C@H](CC(=O)O)NC(=O)[C@@H]1CCCN1C(=O)[C@H](Cc1ccccc1)NC(=O)[C@H](CS)NC(=O)[C@@H](N)CO)[C@@H](C)O)[C@@H](C)CC)C(=O)O [compound 4, SCFPDALDRFLCTHII]","Relative affinity of binding to DR4 (DRB1*0401), in words",high to intermediate relative affinity
